Experimental data as given in patent US12540138B2, “Substituted oxaspiro[4.5]decanes as MOR receptor agonists” (priority 2020, dated 2026).

Protein sequences, listed by entry. Tags and fused reporters are not part of them.
UniProt P35372, whole entry: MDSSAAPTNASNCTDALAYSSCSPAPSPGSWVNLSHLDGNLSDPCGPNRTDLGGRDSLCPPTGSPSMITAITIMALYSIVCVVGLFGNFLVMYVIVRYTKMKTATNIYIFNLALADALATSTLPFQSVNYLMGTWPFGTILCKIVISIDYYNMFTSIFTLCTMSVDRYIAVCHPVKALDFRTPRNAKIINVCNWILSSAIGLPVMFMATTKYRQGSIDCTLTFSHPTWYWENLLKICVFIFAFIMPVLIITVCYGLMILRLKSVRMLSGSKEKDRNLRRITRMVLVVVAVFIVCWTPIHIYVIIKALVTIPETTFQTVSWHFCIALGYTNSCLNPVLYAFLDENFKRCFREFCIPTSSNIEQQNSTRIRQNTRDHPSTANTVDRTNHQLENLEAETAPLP

Molecular target: MOR receptor (PathHunter CHO-K1 OPRM1 β-Arrestin Cell Line) (Homo sapiens, UniProt P35372)
Experiment: cell-based
Conditions: read-out: β-arrestin Emax (%), Morphine was 100%

SMILES: CC(C)[C@H]1C[C@@H](NCC[C@@]2(c3ccccn3)CCOC3(CCCC3)C2)c2ccnn21 [Compound H-7b, (4R,6R)-6-isopropyl-N-(2-((R)-9-(pyridin-2-yl)-6-oxaspiro[4.5]decan-9-yl)ethyl)-5,6-dihydro-4H-pyrrolo[1,2-b]pyrazol-4-amine]
- Emax: 15%
